Among the data in PubChem BioAssay AID492953 (The Scripps Research Institute Molecular Screening Center, 2010) are inhibition values, retold here.

Amino acid sequences for entries named in this document (tags omitted).
UniProt P68402, whole entry: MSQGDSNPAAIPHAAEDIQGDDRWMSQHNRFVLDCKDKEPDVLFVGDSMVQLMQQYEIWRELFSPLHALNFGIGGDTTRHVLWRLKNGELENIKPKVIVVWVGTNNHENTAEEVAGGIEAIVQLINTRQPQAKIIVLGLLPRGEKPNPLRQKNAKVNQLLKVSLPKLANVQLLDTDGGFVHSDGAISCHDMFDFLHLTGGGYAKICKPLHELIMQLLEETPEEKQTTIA

The entries are a selection whose mix differs from that of the whole data set. Some of these compounds have results that are not shown, active ones among them. Active and inactive are the calls of the source.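 The calls were made as follows: active = inhibition above the mean of all tested compounds plus 3 SD (cut at about 24% in these data); inactive = the rest.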

The assay addresses Platelet-activating factor acetylhydrolase IB subunit alpha2 (Homo sapiens) (UniProt P68402). Kind of assay: inhibition of PAF acetylhydrolase 1b subunit 2 – biochemical, fluorescence polarization, human, primary screen (AID 492953).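 Also: 0% = enzyme with DMSO and 100% = wells lacking PAFAH1B2.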 The settings on record: recombinant PAFAH1B2, FP-rhodamine activity probe, at 3.39 µM, hits give high values. (Polarisation of emitted light reports the rotation of a fluorescent probe.)
As a reminder, the inhibition is the change of the read-out against control, counted positive when it falls. For `O=C(OCCN1CCCC1)C(O)(c1ccccc1)c1ccccc1`, the inhibition was inactive: 1.67%.

Take `CC(C)Oc1ccc(C(=O)NCC2(N(C)C)CCCCC2)cc1`: the inhibition is inactive: 0.46%.

With `CN(C)c1cccc(C(=O)NCC2(N(C)C)CCCCC2)c1`, the inhibition was inactive: 3.77%.

As for `COc1ccc(Br)c(C(=O)NCC2(N3CCCCC3)CCCCC2)c1`, the inhibition was inactive: 7.81%.

For `O=C(OC1CN2CCC1CC2)C(CO)(c1ccccc1)c1ccccc1` (stereo not given), the inhibition was inactive: 4.13%.

For `O=C(NCC1(N2CCCCC2)CCCCC1)c1cccc(Cl)c1`, the inhibition is inactive: 2.21%.

As to `COc1ccc(Cl)cc1C(=O)NCC1(N(C)C)CCCCC1`, the inhibition is inactive: -1.59%.

Regarding `COc1cccc(C(=O)NCC2(N3CCCCC3)CCCCC2)c1`, the inhibition is inactive: 1.95%.

In the case of `COc1cc(C(=O)NCC2(N(C)C)CCCCC2)c([N+](=O)[O-])cc1OC`, the inhibition is inactive: 1.19%.

As to `CN(C)C1(CNC(=O)c2ccc(Br)cc2)CCCCC1`, the inhibition is inactive: 2.32%.

Take `COc1ccc(C(=O)NCC2(N(C)C)CCCCC2)cc1`: the inhibition is inactive: 10.2%.

Regarding `O=C(NCC1(N2CCCCC2)CCCCC1)c1cccc(Br)c1`, the inhibition is inactive: 6.39%.

For `CCN1CCCC(OC(=O)C2(O)c3ccccc3C=Cc3ccccc32)C1` (stereo not given), the inhibition was inactive: -6.25%.

For the compound `Cc1cc(C(=O)NCC2(N3CCCCC3)CCCCC2)ccc1[N+](=O)[O-]`, the inhibition was inactive: 6.56%.

`O=C(NCC1(N2CCCCC2)CCCCC1)c1cc(F)c(F)cc1Cl`: the inhibition was inactive: 4.85%.

Take `C=CCN1CCN(CCOC(=O)C(O)(c2ccccc2)c2ccccc2)CC1`: the inhibition was inactive: 6.31%.

For `CN(C)c1ccc(C(=O)NCC2(N(C)C)CCCCC2)cc1`, the inhibition is inactive: -0.12%.

With `CN(C)C1CCCC1OC(=O)C(O)(c1ccccc1)c1ccccc1` (stereo not given), the inhibition is inactive: 3.98%.

On to `Cc1ccccc1C(=O)NCC1(N2CCCCC2)CCCCC1`, for which the inhibition was inactive: 10.2%.

Take `Cc1ccc(C(=O)NCC2(N3CCCCC3)CCCCC2)cc1`: the inhibition was inactive: 7.19%.

For the compound `COc1cc(SC)ccc1C(=O)NCC1(N(C)C)CCCCC1`, the inhibition was inactive: -1.44%.

As for `CCN(CC)CC(C)C(C)OC(=O)C(O)(c1ccccc1)c1ccccc1` (stereo not given), the inhibition was inactive: 3.03%.

With `CC(C)N1C(=O)CC2(CCN(CCOC(=O)C(O)(c3ccccc3)c3ccccc3)CC2)C1=O`, the inhibition was inactive: 1.49%.

`CN1[C@@H]2CC[C@H]1CC(OC(=O)C(O)(c1ccccc1)c1ccccc1)C2` (stereo not given in full): the inhibition was inactive: 5.09%.

As to `O=C(NCC1(N2CCCCC2)CCCCC1)c1cc([N+](=O)[O-])ccc1Cl`, the inhibition is inactive: 2.29%.
